# Antibody variant affinities, Ab-14 heavy chain, assay B

The measurements come from Li et al. 2023 (doi:10.1038/s41467-023-39022-2) through the FLAb antibody collection.

Target: peptide PDVDLGDISGINAS, taken from heptad repeat 2 (HR2) of SARS-CoV-2 spike.

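The parent was found by panning a naive human phage display library on the peptide. The variants were designed computationally from a first round of random CDR variants and then made and measured. Group labels follow the data file (Ctrl: baseline library sampled from a position-specific scoring matrix, with some repeated check sequences; Rand: our label for a block that the file lists under HC and that is probably the random mutants of the ten best first-round binders; En: ensemble of fine-tuned language models; GP: Gaussian process model; GPLM: also part of the Gaussian process libraries; HC: hill climbing; Gen: genetic algorithm; Gibbs: Gibbs sampling; a sequence that several methods proposed may carry one label only). In AlphaSeq, yeast of one mating type display the scFv and yeast of the other type display the target. The frequency of each diploid, read from paired DNA barcodes, reflects how well the two displayed proteins bind. The ratio of observed to expected reads was calibrated, replicate by replicate, on BCL2-family standards whose Kd was known from biolayer interferometry. Mating was done six times.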

Each scFv is VH, the linker GGGGSGGGGSGGGGS, VL, as in the parent Ab-14, and differs from it in the CDRs of the heavy chain only.
VH: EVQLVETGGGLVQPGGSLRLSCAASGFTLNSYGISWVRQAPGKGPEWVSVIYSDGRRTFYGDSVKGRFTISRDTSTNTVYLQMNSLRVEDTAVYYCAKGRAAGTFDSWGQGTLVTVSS
VL: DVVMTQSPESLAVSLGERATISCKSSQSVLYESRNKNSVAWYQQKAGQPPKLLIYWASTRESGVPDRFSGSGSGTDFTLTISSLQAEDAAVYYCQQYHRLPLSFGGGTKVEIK

Each variant is given by its three heavy chain CDRs, as the data file delimits them; those of the parent are GFTLNSYGIS, VIYSDGRRTFYGDSVK, GRAAGTFDS. The read-out is the apparent dissociation constant on a log10 scale (nM): the lower, the stronger. A mean of the replicates is given; it leaves out those without a signal. "nd" marks a missing value. The strain was present, yet no cells mated with the target were sequenced in any replicate, which points to weak or no binding. Nonspecific signal, from three strains lacking the peptide, appeared in 1% of pairings of all heavy chain designs, centred on 2.08 (5% of these signals below 0.84); values are not corrected for it. For each scFv, signals with the empty controls are counted beside the result.

CDR-H1,CDR-H2,CDR-H3,group,"mean, log10 nM",detected,control signals
GNKLNSYGIS,VIYSDGRRTFYGDSVK,GRAAGTFDE,Ctrl,1.11,3 of 6,0 of 18
GFLLNEYGIS,VIYADGLRTQYAESFK,GDLAGYLDS,En_Gibbs,2.29,1 of 6,1 of 18
GFDLNEYGIS,VIYADGVRTFYSDSVK,GEIAGTFDS,En_HC,-0.72,6 of 6,0 of 18
GFSLSEYGIS,VIYADGERANYVSNFK,GVLAGTFVL,En_Gibbs,nd,0 of 6,1 of 18
GFDLEDYGIS,VIYADGQRTAYADSVK,GNVAGTFDQ,En_Gen,0.03,6 of 6,0 of 18
GETTDSYGIS,VIYEDGRRTFEGDSVK,TRAAGTALS,Rand,nd,0 of 6,0 of 18
GFSLNDYGIS,VIYSDGRRTFYGDSVK,GRTAGTFDS,GPLM_Gen,0.60,6 of 6,0 of 18
GFELNEYGIS,VIYSDGRRTFYGDSVK,GRAADTFDQ,GP_HC,nd,0 of 6,0 of 18
GFNLNEYGIS,VIYADGRRKFYADSVK,GETAGTFDS,En_HC,-0.36,6 of 6,1 of 18
GFELNDYGIS,VIYSDGRRTMYWDSVK,GRAAGTFDS,GP_HC,nd,0 of 6,0 of 18
GFDIEEYGVS,VIYADGQRTMYTPNVK,GNITGLADI,En_Gibbs,nd,0 of 6,0 of 18
GFTLNDYGIS,VIYSDGRRVFYIDSVK,GRAAGTFDS,GP_HC,1.69,5 of 6,0 of 18
GFNLNEYGIS,VIYADGRRTQYIDSVK,GNVAGTFDS,En_HC,0.14,6 of 6,0 of 18
GFTLDSYGIS,VIYSDGRRTFYGDSVK,GREAGTFDV,GP_HC,0.09,6 of 6,0 of 18
GFDLNEYGIS,VIYADGKRTFYTDSVK,GGNAGTFDV,En_HC,-0.26,6 of 6,0 of 18
GADLNEMGIS,VIYADGDRKAYQDDVK,GDVSGDFDE,En_Gibbs,nd,0 of 6,0 of 18
GKHLDEYGIS,VIYADGQRVQYADTVK,GIQGVNVDV,En_Gibbs,nd,0 of 6,0 of 18
GFQLNEYGIS,VIYSDGRRTFYSDSVK,GKAAGTFDS,GPLM_Gen,-0.17,6 of 6,0 of 18
GFDLNEYGIS,VIYADGVRTAYADSVK,GSNAGTFDI,En_Gen,-0.47,6 of 6,1 of 18
GFDLNEYGIS,VIYADGMRTAYSDKVK,GNNAGTFDV,En_Gen,-0.27,6 of 6,0 of 18
LHTLNSYGIS,QIYADGRRTFYGDSVK,GRAAGTFDS,Ctrl,nd,0 of 6,2 of 18
GFTLNQYGIS,VIYSDGRRTFYSNSVK,GRAAGFFDS,Rand,1.01,6 of 6,0 of 18
GFTLNDYGIS,VIYSDGRRTFYSDSVK,GRAAGIFDS,GPLM_HC,1.48,1 of 6,0 of 18
GFDLNEYGIS,VIYADGQRTAYADKVK,GNTAGTFDV,En_Gen,-0.29,6 of 6,0 of 18
GFDLNEYGIS,VIYADGMRTAYADNVK,GENAGTFDL,En_Gen,-0.17,6 of 6,0 of 18
GFDLDEYGIS,VIYADGMRTAYADSVK,GETAGTFDI,En_Gen,0.13,6 of 6,1 of 18
GFDLEKYGIS,VIYADGKRVAYQDAVK,GGTGGMFMS,En_Gibbs,nd,0 of 6,0 of 18
GFRLNQYGIS,VIYSDGRRTFYADSVK,GRAAGTFDS,GPLM_HC,nd,0 of 6,0 of 18
GFTLNDYGIV,VIYSDGRRTFYGDSVK,GRAALTFIS,Rand,nd,0 of 6,0 of 18
GFTINSYGIS,VIYSDGRRTFYGDSVK,GRAAGTFIS,Ctrl,nd,0 of 6,0 of 18
GFDLNSYGIS,VIYSDGRDTFYGDSVK,GRAAGTFDS,Ctrl,2.91,1 of 6,1 of 18
GQDLNEYGIS,VIYADGRRTMYANDVK,GKQGGIFED,En_Gibbs,1.79,1 of 6,0 of 18
GFNLNSYGIS,VIYSDGRRTFYADSVK,GKAAGTFDS,GPLM_Gen,0.22,6 of 6,0 of 18
GFDLDEYGIS,VIYADGMRTFYADSVK,GNQAGTFDV,En_Gen,0.07,6 of 6,1 of 18
GFDLAEYGVS,VIYADGKRTAYADHVK,GVNLGFFDL,En_Gibbs,4.67,1 of 6,1 of 18
GFQLNSYGIS,VIYSDGRRTFYQDSVK,GRNAGTFDT,GP_Gibbs,1.17,6 of 6,0 of 18
GFSLNSYGIS,VIYADGRRTFYGDNVK,GRTAGTFDS,GP_Gen,-0.17,6 of 6,0 of 18
GFDIEDYGIS,VIYADGKRSSYSNSFK,GLMAGNMMV,En_Gibbs,nd,0 of 6,1 of 18
GFDLDEYGIS,VIYADGMRTFYSDSVK,GETAGTFDV,En_HC,-0.70,6 of 6,0 of 18
SFDLNSYGIS,VIYSDGRRTFYGDSVK,GKTAGTFDS,GP_Gen,0.36,6 of 6,0 of 18
GFQLNEYGIS,VIYSDGRRTFYGDSVK,GEAAGTFDL,GP_Gibbs,0.96,6 of 6,0 of 18
GFDLNEYGIS,VIYADGRRTAYSDSVK,GTNAGTFDL,En_HC,-0.29,6 of 6,0 of 18
GFDLNEYGIS,VIYADGRRTQYIDSVK,GNEAGTFDI,En_HC,-0.22,6 of 6,0 of 18
GFELNSYGIS,VIYSDGRRTFYQDSVK,GRLAGTFDS,GPLM_Gibbs,1.59,2 of 6,0 of 18
GYTLNEYGIS,VIYSDGRRTFYSDSVK,GRYAGTFDS,GP_HC,1.25,6 of 6,0 of 18
GFSIDEYGIS,VIYADGTRTFYTDNVK,GLIGMVCGL,En_Gibbs,nd,0 of 6,0 of 18
GFSLNEYGIS,VIYSDGRRTFYQDSVK,GRAAVTFDQ,GP_HC,nd,0 of 6,0 of 18
GFDLDEYGIS,VIYADGMRTVYADSVK,GNVAGTFDI,En_Gen,-1.32,6 of 6,0 of 18
GFTNNEYGIS,VIYSDGRRTFYGDSVK,GRTMGTFDS,Ctrl,2.03,6 of 6,1 of 18
GFDLNSYGIS,VIYSDGRRTFYRDSVK,GQAAGTFDS,GPLM_Gen,0.51,6 of 6,0 of 18
GFSLDEYGIS,VIYADGVRTQYHPKVK,GLGGFIFDL,En_Gibbs,nd,0 of 6,0 of 18
GDKLEDYGIS,VIYADGRRSAYVDAVK,GEYAGYFNV,En_Gibbs,nd,0 of 6,0 of 18
GFDLNEYGIS,VIYADGVRTFYIDSVK,GEIAGTFNV,En_HC,-0.21,6 of 6,0 of 18
GFDLNEYGIS,VIYADGMRTAYSDSVK,GENAGTFDI,En_Gen,-0.35,6 of 6,1 of 18
GFDLNEYGIS,VIYADGVRTFYADSVK,GNQAGTFDQ,En_HC,-0.54,6 of 6,0 of 18
GFTLNEYGIS,VIYSDGRRTFYTDSVK,GRTAGTFDS,GPLM_HC,-0.07,6 of 6,1 of 18
GFTLNDYGTS,VIYSDGRRTQYIDSNK,GRAAGTFDS,Rand,nd,0 of 6,0 of 18
GFDLDEYGIS,VIYADGVRTAYTDSVK,GENAGTFDI,En_Gen,-1.20,6 of 6,0 of 18
GFDLDEYGIS,VIYADGVRTAYADKVK,GNNAGTFDV,En_Gen,0.85,6 of 6,0 of 18
GFSLNSYGIS,VIYSDGRRTFYGDSVK,GKTAGTFDV,GP_Gen,1.47,6 of 6,0 of 18
GFTLESYGIS,VIYSDGRRTFYSDSVK,GWAVGTFDS,GP_HC,nd,0 of 6,1 of 18
GFDLDEYGIS,VIYADGTRKYYADNVK,GDYHYVVST,En_Gibbs,nd,0 of 6,0 of 18
GFTLNSYGIS,VIYSDGRRTFYGDSVK,GRAAGAFDS,Ctrl,nd,0 of 6,1 of 18
GFNIDEYGVS,VIYADGRRQYYADDVK,GHNLVMALV,En_Gibbs,nd,0 of 6,0 of 18
EFTLNSYGIS,VIYSDGRRTFYSDSVK,GEAAGTFDS,GPLM_Gen,1.26,5 of 6,0 of 18
GFDLNEYGIS,VIYADGRRTQYIDSVK,GEIAGTFDQ,En_HC,0.08,6 of 6,0 of 18
GFDLDEYGIS,VIYADGQRTAYADSVK,GNQAGTFDI,En_Gen,0.12,6 of 6,1 of 18
GFDLNSYGIS,VIYSDGRRTFYQDSVK,GKQAGTFDS,GP_Gibbs,1.26,6 of 6,0 of 18
GFDLEEYGIS,VIYADGSRTAYADSVK,GNVAGTFDS,En_HC,-0.15,6 of 6,0 of 18
GFNLDEQGIS,VIYADGMRTVYAQNVK,GQNVEFTVF,En_Gibbs,nd,0 of 6,0 of 18
GFTLNEYPIS,VIYSDGRRTAYTDSVK,GRAAGTFDS,Ctrl,nd,0 of 6,0 of 18
GFSLNEYGIS,VIYADGKRNFYADSVK,GLHSGFFDI,En_Gibbs,4.19,1 of 6,0 of 18
GKDLDEYGIS,VIYADGRRTFYLNTVK,GEDGFDLNQ,En_Gibbs,2.01,1 of 6,0 of 18
GFDLDEYGIS,VIYADGKRTAYAESVK,GNVAGTFDV,En_Gen,-0.52,6 of 6,0 of 18
GFTLNSYGIS,VIYADGRRTFYGDSVK,GEFAVTFDS,Ctrl,nd,0 of 6,0 of 18
GFTLNEYGIS,VIYSDGRRTFYGDSVK,GRQAGTFDE,GP_HC,0.55,6 of 6,0 of 18
GFDLEDYGIS,VIYADGRRTQYADSVK,GEEAGTFDL,En_HC,0.28,6 of 6,0 of 18
GFGLNEYGIS,VIYSDGRRTFYHDSVK,GRTAGTFDT,GP_Gen,-0.65,6 of 6,0 of 18
GFSLNEYGIS,VIYSDGRRTFYGDSVK,GQAAGTFDV,GPLM_Gibbs,0.08,6 of 6,1 of 18

For reference, 8 entries of the list once more:

CDR-H1,CDR-H2,CDR-H3,group,"mean, log10 nM",detected,control signals
GFDLDEYGIS,VIYADGMRTVYADSVK,GNVAGTFDI,En_Gen,-1.32,6 of 6,0 of 18
GFSLNEYGIS,VIYSDGRRTFYGDSVK,GQAAGTFDV,GPLM_Gibbs,0.08,6 of 6,1 of 18
GFDLNEYGIS,VIYADGRRTQYIDSVK,GEIAGTFDQ,En_HC,0.08,6 of 6,0 of 18
GFELNDYGIS,VIYSDGRRTMYWDSVK,GRAAGTFDS,GP_HC,nd,0 of 6,0 of 18
GFSLNEYGIS,VIYSDGRRTFYQDSVK,GRAAVTFDQ,GP_HC,nd,0 of 6,0 of 18
GQDLNEYGIS,VIYADGRRTMYANDVK,GKQGGIFED,En_Gibbs,1.79,1 of 6,0 of 18
GFELNSYGIS,VIYSDGRRTFYQDSVK,GRLAGTFDS,GPLM_Gibbs,1.59,2 of 6,0 of 18
GFTLNQYGIS,VIYSDGRRTFYSNSVK,GRAAGFFDS,Rand,1.01,6 of 6,0 of 18

A sequence measured in both rounds can read differently, since the two assays cover different ranges. The authors averaged sequences with at least three values out of six and counted those with two or fewer as poor binders.